# Reference: BindingDB's records for doi:10.1016/j.bmcl.2007.11.060 (Amgen, 2008)
# Test: Antagonist activity at CXCR3 assessed as ITAC-mediated migration of human PBMC in presence of 100% human plasma
smiles,measurement,value
"CCS(=O)(=O)CCN(C(=O)Cc1ccc(F)c(C(F)(F)F)c1)[C@H](C)c1nc2ccccn2c(=O)c1-c1ccc(C#N)cc1 [(R)-N-(1-(3-(4-cyanophenyl)-4-oxo-4H-pyrido[1,2-a]pyrimidin-2-yl)ethyl)-N-(2-(ethylsulfonyl)ethyl)-2-(4-fluoro-3-(trifluoromethyl)phenyl)acetamide]",IC50,41 nM
